We go through one substance from publication PMC3788760.

This test concerns the target full-length human protein disulfide isomerase (PDI) (human) (UniProt P07237). Put plainly: ITC; 25.0°C; VP-ITC; 200 µM Tau244–372 (or 40 µM full-length Tau) in the syringe injected into 8.1 µM PDI or fragment (or 3.24 µM PDI) in the cell; 10 mM HEPES pH 7.4, 100 mM NaCl, no DTT; single set of identical sites model. On the technique in general: In ITC the heat of successive injections is recorded.

A word on the Kd: it is the equilibrium constant for the complex coming apart. A low value points to tighter binding. Usually stoichiometry N stands for a count of units in the complex or per binding partner. Turning to “full-length human Tau (from UniProt P10636-8 1-441) (natural protein)”, the Kd worked out at 1810 nM, the dH was -14.5 kcal/mol and the stoichiometry N came out at 1.12.
